Patent publication US10722580B2, “Compositions and methods for treatment and prevention of uropathogenic E. coli infection” (UNIVERSITY OF WASHINGTON, priority 2015, dated 2020)

Key:
fimbrial FimH^wt = fimbrial FimH^wt (Escherichia coli, UniProt P08191); settings: pre-treatment with 1% mannose or 50 μg/ml mAb (FIG. 4A)
FimH [1] = molecular target: T1, FimH (Escherichia coli, UniProt P08191); settings: open, low-affinity conformation; fimbrial FimH^wt; read-out: KD for mannose; cited from earlier work
T1 construct: rows headed: KD for mannose; fimbrial FimH^wt

FimH [2] = settings: tightened, high-affinity conformation; read-out: KD for mannose; cited from earlier work

In the case of “α-methyl-D-mannopyranoside [mannose, reference compound]”, the “conversion of FimH^wt to the active conformation (mAb21 binding after pre-treatment)” value (fimbrial FimH^wt) is given as “converts it from the inactive to the active conformation”, the Kd (FimH [1]) is given as 298 µM and the Kd (FimH [2]) is given as 1.2 µM.
